By UniProt entry, the sequences of proteins in these tests, tags left out.
UniProt P10275, whole entry T878A: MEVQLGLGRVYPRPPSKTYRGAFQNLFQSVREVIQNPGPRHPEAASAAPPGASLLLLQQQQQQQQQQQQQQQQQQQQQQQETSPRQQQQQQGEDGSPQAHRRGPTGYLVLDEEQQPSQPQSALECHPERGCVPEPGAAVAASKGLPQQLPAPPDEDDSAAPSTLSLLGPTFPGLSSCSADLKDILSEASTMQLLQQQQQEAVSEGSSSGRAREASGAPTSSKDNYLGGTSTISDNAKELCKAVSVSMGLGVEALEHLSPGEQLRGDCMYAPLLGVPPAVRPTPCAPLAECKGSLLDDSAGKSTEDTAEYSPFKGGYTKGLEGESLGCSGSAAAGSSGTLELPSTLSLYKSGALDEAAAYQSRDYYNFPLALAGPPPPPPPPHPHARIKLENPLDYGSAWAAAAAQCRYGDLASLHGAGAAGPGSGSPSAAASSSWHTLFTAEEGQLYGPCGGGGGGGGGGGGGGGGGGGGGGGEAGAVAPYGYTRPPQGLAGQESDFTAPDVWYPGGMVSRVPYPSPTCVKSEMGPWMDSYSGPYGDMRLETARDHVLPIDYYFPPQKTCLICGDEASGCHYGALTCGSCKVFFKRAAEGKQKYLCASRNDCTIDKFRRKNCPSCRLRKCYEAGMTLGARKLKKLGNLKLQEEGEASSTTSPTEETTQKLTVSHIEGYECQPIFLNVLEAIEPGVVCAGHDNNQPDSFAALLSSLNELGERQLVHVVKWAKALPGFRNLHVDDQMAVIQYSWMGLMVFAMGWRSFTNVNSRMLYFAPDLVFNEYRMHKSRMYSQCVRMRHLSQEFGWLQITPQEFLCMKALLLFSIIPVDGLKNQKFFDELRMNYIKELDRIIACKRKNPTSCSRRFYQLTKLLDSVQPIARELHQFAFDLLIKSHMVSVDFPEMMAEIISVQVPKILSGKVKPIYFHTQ

According to patent US10011573B2, “Human androgen receptor DNA-binding domain (DBD) compounds as therapeutics and methods for their use” (The University of British Columbia, priority 2014, dated 2018):

Assays:
androgen receptor (AR) = androgen receptor (AR) (Homo sapiens, UniProt P10275, T878A); experiment: eGFP cellular AR transcription assay (LNCaP eGFP cells, LN-ARR2PB-eGFP); conditions: for IC50: read-out: eGFP IC50
PSA = experiment: Prostate-specific antigen (PSA) assay, secreted PSA from the eGFP assay plates; conditions: read-out: PSA IC50; Series 1
[1] = biological target: AR binding to PSA and FKBP5 enhancer (Homo sapiens, UniProt P10275, T878A); experiment: Chromatin immunoprecipitation (ChIP) in LNCaP cells; format: cell-based

Row | SMILES | IC50 (androgen receptor (AR)) [µM] | IC50 (PSA) [µM] | AR pulldown of the PSA and FKBP5 enhancer [1] | % Inhibition (3 μM) (androgen receptor (AR)) [%]
1 | Cn1ccn(-c2ccc(N3CCOCC3)s2)c1=O | 6.3 | – | – | –
2 | Brc1ncn(-c2nccc(N3CCOCC3)n2)c1Br | 1.5 | 0.88 | – | –
3 | O=C(Nc1ncc(-c2ccccc2)s1)C1CSCCS1 (stereo not shown) | 15.5 | – | reduced AR pulldown | –
4 | c1ccc(-c2cc(N3CCOCC3)cs2)cc1 | – | 0.837 | – | 110.53
5 | Brc1ncn(-c2cnc(N3CCOCC3)[nH]2)c1Br | 0.05 | – | – | –
6 | N#Cc1ccc(-c2ccc(N3CCOCC3)s2)s1 | 11.4 | – | – | 52.98
7 | Brc1scc(-c2nccc(N3CCOCC3)n2)c1Br | 8.65 | – | – | –
8 | CCC(C)C(=O)Nc1ncc(-c2ccccc2)s1 (stereo not shown) | 13.3 | – | – | –
9 | c1cc2ncn(-c3csc(N4CCOCC4)n3)c2cn1 | 2.8 | – | – | –
